Source: patent US20060189530A1 (Bayer Corporation, priority 1996, published 2006)

Amino acid sequences for entries named in this document (tags omitted). A change or cut given only in a name is not applied to a line headed by its entry.
UniProt Q63447: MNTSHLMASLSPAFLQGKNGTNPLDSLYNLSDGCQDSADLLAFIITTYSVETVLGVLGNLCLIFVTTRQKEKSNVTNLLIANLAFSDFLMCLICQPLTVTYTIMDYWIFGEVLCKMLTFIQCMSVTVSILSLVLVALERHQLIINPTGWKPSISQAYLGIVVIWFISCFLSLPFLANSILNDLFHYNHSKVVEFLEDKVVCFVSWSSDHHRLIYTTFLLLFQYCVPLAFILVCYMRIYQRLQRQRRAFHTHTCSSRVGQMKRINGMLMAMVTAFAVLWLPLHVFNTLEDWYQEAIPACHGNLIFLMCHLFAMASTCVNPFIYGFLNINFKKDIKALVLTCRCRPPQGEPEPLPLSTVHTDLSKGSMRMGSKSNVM

T1: rat NPY Y5 receptor, 6B clone (rat, UniProt Q63634 1-445)
T1 construct: 445 amino acid protein; assayed as membranes of transiently transfected COS-7 cells; also called RAT 6B Clone; Y217.24.13.6B clone
T1 sequence: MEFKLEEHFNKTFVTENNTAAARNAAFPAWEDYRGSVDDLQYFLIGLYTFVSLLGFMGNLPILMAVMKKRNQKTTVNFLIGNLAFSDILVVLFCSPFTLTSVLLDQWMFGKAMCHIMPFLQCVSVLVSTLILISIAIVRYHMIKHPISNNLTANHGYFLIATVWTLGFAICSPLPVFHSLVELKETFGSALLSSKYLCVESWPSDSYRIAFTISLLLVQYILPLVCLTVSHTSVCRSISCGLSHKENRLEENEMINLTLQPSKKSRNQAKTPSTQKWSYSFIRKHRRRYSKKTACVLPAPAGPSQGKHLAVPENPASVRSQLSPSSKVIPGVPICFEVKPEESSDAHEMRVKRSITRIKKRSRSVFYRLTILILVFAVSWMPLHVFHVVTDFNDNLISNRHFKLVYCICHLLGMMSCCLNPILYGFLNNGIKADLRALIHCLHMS

T2: rat NPY Y5 receptor, Y555 clone (rat, UniProt Q63634 1-445)
T2 construct: Allelic variant of 6B (proline to leucine in the first transmembrane domain); same coding region as Y861; assayed as membranes of transiently transfected COS-7 cells; also called RAT Y555 Clone
T2 sequence: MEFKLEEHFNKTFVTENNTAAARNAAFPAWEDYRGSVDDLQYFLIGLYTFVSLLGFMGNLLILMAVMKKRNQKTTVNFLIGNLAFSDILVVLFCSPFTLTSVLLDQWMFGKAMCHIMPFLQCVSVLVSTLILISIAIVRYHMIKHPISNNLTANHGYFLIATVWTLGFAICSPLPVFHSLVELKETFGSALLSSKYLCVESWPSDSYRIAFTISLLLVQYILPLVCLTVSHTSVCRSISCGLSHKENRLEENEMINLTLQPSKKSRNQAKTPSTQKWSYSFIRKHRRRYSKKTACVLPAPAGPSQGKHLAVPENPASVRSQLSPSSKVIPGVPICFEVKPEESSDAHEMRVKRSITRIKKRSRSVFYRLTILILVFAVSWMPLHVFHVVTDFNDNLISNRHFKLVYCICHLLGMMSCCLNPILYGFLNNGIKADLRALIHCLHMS

T3: rat NPY Y5 receptor, Y861 clone (rat, UniProt Q63634 1-445)
T3 construct: Same coding region as Y555; also called RAT Y861 Clone
T3 sequence: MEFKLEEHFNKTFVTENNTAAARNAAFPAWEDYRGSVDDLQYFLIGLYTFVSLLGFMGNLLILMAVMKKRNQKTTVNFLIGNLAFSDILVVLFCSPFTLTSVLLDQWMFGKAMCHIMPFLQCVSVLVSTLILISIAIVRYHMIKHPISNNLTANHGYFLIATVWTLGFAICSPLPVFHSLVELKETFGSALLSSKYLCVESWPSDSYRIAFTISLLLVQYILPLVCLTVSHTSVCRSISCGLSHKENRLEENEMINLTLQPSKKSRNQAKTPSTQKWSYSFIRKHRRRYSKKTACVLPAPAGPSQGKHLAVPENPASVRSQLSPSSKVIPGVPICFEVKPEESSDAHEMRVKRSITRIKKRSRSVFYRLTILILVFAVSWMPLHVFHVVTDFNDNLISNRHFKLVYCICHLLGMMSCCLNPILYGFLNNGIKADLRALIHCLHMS


Assays:
[1] = biological target: T1, rat NPY Y5 receptor, 6B clone; experiment: [125I]PYY competition, membranes of transiently transfected COS-7 cells
Source text: (§1) All other peptides were purchased from either Peninsula (Belmont, Calif.) or Bachem (Torrance, Calif.).

[2] = biological target: T2, rat NPY Y5 receptor, Y555 clone; experiment: as above
Source text: as §1

[3] = biological target: T3, rat NPY Y5 receptor, Y861 clone; experiment: as above
Source text: as §1

Rat Y4/PP1 (clone) = biological target: T4, Rat Y4/PP1 (clone) (rat, UniProt Q63447 1-375); experiment: rat [125I]PP competition, rat Y4/PP1 clone
T4 construct: Protein preparation of the cloned receptor; also called rat Y4/PPI; rat Y4/PP1 receptor

[4] = biological target: T3, rat NPY Y5 receptor, Y861 clone; experiment: [125I]PYY competition, membranes of stable 293S clone 293S.Y861.2
Source text: as §1

Row | Binder | Ki [1] [nM] | IC50 [2] [nM] | Ki [3] [nM] | IC50 (Rat Y4/PP1 (clone)) [nM] | Ki [4] [nM]
1 | PAEDMARYYSALRHYINLITRQRY (peptide, UniProt P07808 42-65, looked up, not fully specified, range 13-36; it may be a misprint for r(13-36)PYY (rat NPY is elsewhere written r/h)) [r(13-36)NPY] | 11 | 73 | 86 |  | 
2 | ARYYSALRHYINLITRQRY (peptide, UniProt P01304 27-45, looked up, not fully specified, range 18-36; Range counts on the mature peptide) [p(18-36)NPY] |  |  |  | 159 | 61
